Experimental findings from PubChem BioAssay AID1259399 (Fisher Drug Discovery Resource Center, 2018) are described below.

By UniProt entry, the sequences of proteins in these tests, tags left out.
UniProt Q8C6L5, whole entry: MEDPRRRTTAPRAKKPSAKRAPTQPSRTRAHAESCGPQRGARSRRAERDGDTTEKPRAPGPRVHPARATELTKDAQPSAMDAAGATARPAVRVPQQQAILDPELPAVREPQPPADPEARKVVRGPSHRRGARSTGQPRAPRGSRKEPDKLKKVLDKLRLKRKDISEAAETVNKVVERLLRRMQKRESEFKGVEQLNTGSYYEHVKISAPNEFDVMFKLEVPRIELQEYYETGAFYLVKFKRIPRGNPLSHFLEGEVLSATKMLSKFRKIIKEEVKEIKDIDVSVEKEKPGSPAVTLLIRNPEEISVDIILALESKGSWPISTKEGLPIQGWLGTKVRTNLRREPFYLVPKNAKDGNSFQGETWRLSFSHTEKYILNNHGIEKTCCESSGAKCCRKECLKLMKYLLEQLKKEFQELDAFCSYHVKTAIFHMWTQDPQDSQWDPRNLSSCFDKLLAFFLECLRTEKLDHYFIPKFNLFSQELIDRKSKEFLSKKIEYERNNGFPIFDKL

This is a selection; strong and weak results do not stand in their true shares. Activity calls are given as the source filed them. Rule as the data show it: active = inhibition above about 40%; inactive = the rest.

The target of this experiment is Cyclic GMP-AMP synthase (Mus musculus) (UniProt Q8C6L5). The experiment in a line: inhibition of Mus musculus cGAS, primary biochemical chemiluminescence screen (AID 1259399).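 Also: 0% = negative control wells and 100% = reference inhibitor with no enzyme activity.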 The settings on record: recombinant cGAS, Kinase-Glo ATP depletion luminescence; at 12.5 µM; active compounds read high. A general note: Kinase-Glo measures the ATP left after a reaction by luminescence.
Regarding `CN(C)C1(CNC(=O)c2ccccn2)CCCCC1`, the inhibition is inactive: -7.67%. Consider `O=C(NCC1(N2CCCCC2)CCCCC1)c1cn2ccccc2n1`, for which the inhibition was inactive: -7.08%. `O=C(N[C@@H]1CCCC[C@H]1N1CCOCC1)c1cccc(Br)c1`: the inhibition is inactive: -3.85%. For `Cc1nc(N)ncc1C(=O)NCC1(N2CCCC2)CCCCC1` the value was inactive: 0.0229%; for `CN(CC1(N2CCCCC2)CCCCC1)C(=O)c1cnc2c(c1)nnn2C`, inactive: -4.38%; for `Cn1cc(C(=O)NCC2(N3CCCC3)CCCCC2)c(=O)[nH]c1=O`, inactive: -8.3%.

Take `CCn1ccc(C(=O)N(C)CC2(N3CCCCC3)CCCCC2)cc1=O`: the inhibition was inactive: -7.02%. `Cc1cccc(N(C(=O)c2ccco2)C2CCN(C(=O)OC(C)(C)C)CC2)c1`: the inhibition was inactive: -13%.

In the case of `Cc1nc2ncc(C(=O)N(C)CC3(N4CCCCC4)CCCCC3)c(=O)n2[nH]1`, the inhibition was inactive: 0.32%.

As to `O=c1[nH]c2ccccc2n1C1CCN(Cc2ccccn2)CC1`, the inhibition was inactive: -3.62%. Consider `N#Cc1ccc(C(=O)CBr)cc1`, for which the inhibition is inactive: -4.93%. For `COc1cccc(NC2CCN(Cc3ccncc3)CC2)c1` the value was inactive: -4.14%; for `CC(C)(C)c1ncc(C(=O)NCC2(N3CCOCC3)CCCCC2)c(=O)[nH]1`, inactive: -5.24%. In the case of `Nc1cc(C(=O)NCC2(N3CCCC3)CCCCC2)[nH]n1` it was inactive: -3.59%.

Usually inhibition stands for the change of the read-out against control, counted positive when it falls.
